Test results: patent publication US20210196681A1, “SELECTIVE PRESENILIN-2 GAMMA-SECRETASE INHIBITORS” (UNIVERSITEIT MAASTRICHT, priority 2018, published 2021)

Tested on: NICD1-Val1744 (γ-secretase cleavage of Notch1)
Conditions: DBZ 0.2 μM, 24 hours; irrespective of the γ-secretase complex; FIG. 2A

**Q.** For `C1=Cc2ccccc2-c2ccccc2N1` [DBZ, dibenzazepine], which NICD1-Val1744 cleavage is on record?
**A.** blocked
